Test system: 22Rv1 cells
Test: Growth assay (SRB), 22Rv1
Details: 22Rv1, Log10 Conc. (nM) 3.10

## CN(C)C/C=C/C(=O)Nc1ccc(C(=O)N[C@@]2(C)CCC[C@@H](Nc3ncc(Cl)c(-c4c[nH]c5ccccc45)n3)C2)nc1 [SY-1365]
  % Growth: -9.14%

Source: article PMC12528448, “Resistance to CDK7 inhibitors directed by acquired mutation of a conserved residue in cancer cells” (The EMBO Journal, 2025)
